Values of other authors in PMC10945480 (Journal of Medicinal Chemistry, 2024).

Tested on: washed human platelets
Details: read-out: platelet aggregation IC50, U46619 induced, U46619 (1 μM); cited from earlier work

CC(=O)Oc1ccccc1C(=O)O [aspirin]
IC50: > 200 µM
